## Membrane permeability of cyclic peptides

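Lipid, pH, incubation time, direction and concentration are not recorded in the data file. Other peptides of the study may be missing here. Peptides that the database sets to -10, its floor, are left out.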

PAMPA is the parallel artificial membrane permeability assay, which has no cells and reads passive diffusion.
Permeability is given as log10 of P in cm/s; higher (less negative) is more permeable.

For CC(C)C[C@@H]1NC(=O)[C@@H]2CCCN2C(=O)C[C@H](Cc2ccccc2)NC(=O)CN(Cc2ccccc2)C(=O)[C@H](C)N(C)C(=O)[C@H]2CCCN2C(=O)[C@H](Cc2ccccc2)NC1=O the data give PAMPA -6.20 (log10 cm/s).
For CC(C)C[C@H]1NC(=O)C[C@H](Cc2ccccc2)NC(=O)[C@H]2CCCN2C(=O)[C@H](Cc2ccccc2)NC(=O)CN(Cc2ccccc2)C(=O)[C@@H]2CCCN2C(=O)C[C@H](Cc2ccccc2)NC1=O the data give PAMPA -5.99 (log10 cm/s).
For CC(C)C[C@H]1C(=O)N(Cc2ccccc2)CC(=O)N2CCC[C@@H]2C(=O)N(Cc2ccccc2)CC(=O)N[C@@H](Cc2ccccc2)C(=O)N[C@@H](C)C(=O)N1C the data give PAMPA -5.67 (log10 cm/s).
For CCCN1CC(=O)N(Cc2ccccc2)CC(=O)N[C@@H](CC(C)C)C(=O)N2CCC[C@@H]2C(=O)N[C@H](CC(C)C)C(=O)N[C@@H](Cc2ccccc2)C(=O)N2CCC[C@@H]2C1=O the data give PAMPA -5.82 (log10 cm/s).
For CCCN1CC(=O)N(Cc2ccccc2)CC(=O)N[C@@H](Cc2ccccc2)CC(=O)N2CCC[C@H]2C(=O)N(C)[C@H](CC(C)C)C(=O)N[C@@H](Cc2ccccc2)C(=O)N2CCC[C@H]2C1=O the data give PAMPA -5.97 (log10 cm/s).
For CC(C)C[C@@H]1C(=O)N(Cc2ccccc2)CC(=O)N2CCC[C@@H]2C(=O)N(Cc2ccccc2)CC(=O)N[C@@H](Cc2ccccc2)C(=O)N[C@@H](Cc2ccccc2)CC(=O)N1C the data give PAMPA -5.46 (log10 cm/s).
For CC(C)C[C@H]1NC(=O)C[C@H](Cc2ccccc2)NC(=O)[C@H](Cc2ccccc2)NC(=O)CN(Cc2ccccc2)C(=O)[C@@H]2CCCN2C(=O)CN(Cc2ccccc2)C1=O the data give PAMPA -6.02 (log10 cm/s).
For CC(C)C[C@H]1C(=O)N(C)[C@@H](CC(C)C)C(=O)N2CCC[C@@H]2C(=O)N(Cc2ccccc2)CC(=O)N[C@@H](Cc2ccccc2)C(=O)N2CCC[C@@H]2C(=O)N[C@@H](Cc2ccccc2)CC(=O)N1C the data give PAMPA -5.14 (log10 cm/s).
For CC(C)C[C@H]1C(=O)N(Cc2ccccc2)CC(=O)N2CCC[C@@H]2C(=O)N(Cc2ccccc2)CC(=O)N[C@@H](Cc2ccccc2)C(=O)N2CCC[C@H]2C(=O)N[C@@H](Cc2ccccc2)CC(=O)N1C the data give PAMPA -7.14 (log10 cm/s).
For CC(C)C[C@H]1NC(=O)[C@@H](C)NC(=O)[C@H](Cc2ccccc2)NC(=O)CN(Cc2ccccc2)C(=O)[C@H]2CCCN2C(=O)C[C@H](Cc2ccccc2)NC1=O the data give PAMPA -5.54 (log10 cm/s).
For CCCN1CC(=O)N(Cc2ccccc2)CC(=O)N[C@H](CC(C)C)C(=O)N2CCC[C@@H]2C(=O)N(Cc2ccccc2)CC(=O)N[C@@H](Cc2ccccc2)C(=O)N2CCC[C@H]2C1=O the data give PAMPA -5.64 (log10 cm/s).
For CCCN1CC(=O)N[C@@H](CC(C)C)C(=O)N(C)[C@H](CC(C)C)C(=O)N2CCC[C@H]2C(=O)N(Cc2ccccc2)CC(=O)N[C@@H](Cc2ccccc2)C1=O the data give PAMPA -4.98 (log10 cm/s).
For CC(C)C[C@H]1NC(=O)C[C@H](Cc2ccccc2)NC(=O)[C@H](Cc2ccccc2)NC(=O)CN(Cc2ccccc2)C(=O)[C@H]2CCCN2C(=O)C[C@H](Cc2ccccc2)NC1=O the data give PAMPA -5.76 (log10 cm/s).
For CC(C)C[C@@H]1NC(=O)[C@@H]2CCCN2C(=O)C[C@H](Cc2ccccc2)NC(=O)CN(Cc2ccccc2)C(=O)C[C@H](Cc2ccccc2)NC(=O)[C@H](Cc2ccccc2)NC1=O the data give PAMPA -6.02 (log10 cm/s).
For CCCN1CC(=O)N[C@@H](CC(C)C)C(=O)N(Cc2ccccc2)CC(=O)N2CCC[C@@H]2C(=O)N(Cc2ccccc2)CC(=O)N[C@@H](Cc2ccccc2)C1=O the data give PAMPA -5.18 (log10 cm/s).
For CC(C)C[C@H]1C(=O)N(Cc2ccccc2)CC(=O)N2CCC[C@H]2C(=O)N(Cc2ccccc2)CC(=O)N[C@@H](Cc2ccccc2)C(=O)N2CCC[C@@H]2C(=O)N[C@@H](Cc2ccccc2)CC(=O)N1C the data give PAMPA -5.81 (log10 cm/s).
For CC(C)C[C@H]1NC(=O)[C@H]2CCCN2C(=O)[C@@H](CC(C)C)NC(=O)CN(Cc2ccccc2)C(=O)C[C@H](Cc2ccccc2)NC(=O)[C@H](Cc2ccccc2)NC1=O the data give PAMPA -5.98 (log10 cm/s).
For CC(C)C[C@H]1C(=O)N[C@@H](Cc2ccccc2)CC(=O)N2CCC[C@H]2C(=O)N(Cc2ccccc2)CC(=O)N[C@@H](Cc2ccccc2)C(=O)N[C@@H](Cc2ccccc2)CC(=O)N1C the data give PAMPA -5.54 (log10 cm/s).
For C[C@@H]1NC(=O)[C@H]2CCCN2C(=O)[C@H](Cc2ccccc2)NC(=O)CN(Cc2ccccc2)C(=O)[C@@H]2CCCN2C(=O)CN(Cc2ccccc2)C(=O)CN(Cc2ccccc2)C1=O the data give PAMPA -6.03 (log10 cm/s).
For CC(C)C[C@@H]1NC(=O)C[C@H](Cc2ccccc2)NC(=O)[C@H]2CCCN2C(=O)[C@H](Cc2ccccc2)NC(=O)CN(Cc2ccccc2)C(=O)[C@@H]2CCCN2C(=O)CN(Cc2ccccc2)C1=O the data give PAMPA -5.76 (log10 cm/s).
For CC(C)C[C@@H]1NC(=O)[C@@H]2CCCN2C(=O)CN(Cc2ccccc2)C(=O)CN(Cc2ccccc2)C(=O)[C@H](C)NC(=O)[C@H]2CCCN2C(=O)[C@H](Cc2ccccc2)NC1=O the data give PAMPA -6.37 (log10 cm/s).
For CCCN1CC(=O)N(C)[C@H](CC(C)C)C(=O)N[C@@H](CC(C)C)C(=O)N2CCC[C@@H]2C(=O)N(Cc2ccccc2)CC(=O)N[C@@H](Cc2ccccc2)C1=O the data give PAMPA -5.37 (log10 cm/s).

Excerpt, the final 3 entries:

{"smiles": "CC(C)C[C@@H]1NC(=O)C[C@H](Cc2ccccc2)NC(=O)[C@H]2CCCN2C(=O)[C@H](Cc2ccccc2)NC(=O)CN(Cc2ccccc2)C(=O)[C@@H]2CCCN2C(=O)CN(Cc2ccccc2)C1=O", "PAMPA (log10 cm/s)": "-5.76"}
{"smiles": "CC(C)C[C@@H]1NC(=O)[C@@H]2CCCN2C(=O)CN(Cc2ccccc2)C(=O)CN(Cc2ccccc2)C(=O)[C@H](C)NC(=O)[C@H]2CCCN2C(=O)[C@H](Cc2ccccc2)NC1=O", "PAMPA (log10 cm/s)": "-6.37"}
{"smiles": "CCCN1CC(=O)N(C)[C@H](CC(C)C)C(=O)N[C@@H](CC(C)C)C(=O)N2CCC[C@@H]2C(=O)N(Cc2ccccc2)CC(=O)N[C@@H](Cc2ccccc2)C1=O", "PAMPA (log10 cm/s)": "-5.37"}

Data: CycPeptMPDB; original report Townsend et al. 2020, doi:10.26434/chemrxiv.13335941.v1.